Source: publication PMC9272907, “Penpulimab, an Fc-Engineered IgG1 Anti-PD-1 Antibody, With Improved Efficacy and Low Incidence of Immune-Related Adverse Events” (Frontiers in Immunology, 2022)

Chains of the proteins cited; added tags and fusions are not shown. A line that says so, or that is headed by a name, gives the form on record, which may keep a tag or linker. Residues count along the entry.
UniProt P02745, 23-245: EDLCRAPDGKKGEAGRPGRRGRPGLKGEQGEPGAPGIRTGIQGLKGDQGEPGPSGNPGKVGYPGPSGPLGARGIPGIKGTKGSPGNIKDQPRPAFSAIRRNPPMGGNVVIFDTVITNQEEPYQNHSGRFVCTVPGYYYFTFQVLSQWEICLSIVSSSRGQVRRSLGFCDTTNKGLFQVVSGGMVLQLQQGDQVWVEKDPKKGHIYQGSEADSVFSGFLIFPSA
C1q, UniProt P02746, 28-253: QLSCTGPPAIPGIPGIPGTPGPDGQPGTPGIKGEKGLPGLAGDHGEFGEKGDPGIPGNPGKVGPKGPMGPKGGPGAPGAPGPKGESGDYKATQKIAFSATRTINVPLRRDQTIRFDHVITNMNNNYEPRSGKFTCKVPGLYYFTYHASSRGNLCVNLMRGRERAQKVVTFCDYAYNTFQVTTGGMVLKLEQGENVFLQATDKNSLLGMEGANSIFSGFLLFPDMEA
C1q, UniProt P02747, 29-245: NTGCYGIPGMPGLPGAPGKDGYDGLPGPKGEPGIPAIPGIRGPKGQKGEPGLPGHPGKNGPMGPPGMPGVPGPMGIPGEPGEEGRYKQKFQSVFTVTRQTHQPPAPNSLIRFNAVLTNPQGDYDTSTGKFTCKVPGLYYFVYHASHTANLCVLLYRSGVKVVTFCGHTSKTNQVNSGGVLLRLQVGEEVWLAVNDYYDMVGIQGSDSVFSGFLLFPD
AK105 (hG1WT), a version of penpulimab with wildtype IgG1 backbone (human), light, as listed by the source, chain 2 of 2: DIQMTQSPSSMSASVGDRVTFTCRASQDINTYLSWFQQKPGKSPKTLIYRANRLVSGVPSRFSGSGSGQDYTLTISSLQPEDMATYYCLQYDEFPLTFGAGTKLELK
AK105 (hG1WT), a version of penpulimab with wildtype IgG1 backbone (human), heavy, as listed by the source, chain 1 of 2: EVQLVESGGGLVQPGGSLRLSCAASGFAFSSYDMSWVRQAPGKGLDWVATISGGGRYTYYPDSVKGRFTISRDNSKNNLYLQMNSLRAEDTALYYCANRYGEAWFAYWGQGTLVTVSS

Biological target: AK105 (hG1WT), a version of penpulimab with wildtype IgG1 backbone (human)
Experiment: BLI; ForteBio Octet QKe; antibodies (50 μg/mL) immobilised on FAB2G sensor; C1q 20 nM to 1.25 nM in solution; 60 s binding and 60 s dissociation

Kd: 1.84 nM | koff: 0.0104 s⁻¹ | kon: 5.64e+06 M⁻¹ s⁻¹
Substance: C1q (from UniProt P02745 23-245; P02746 28-253; P02747 29-245) (complex)
